# Assays:
# By UniProt entry, the sequences of proteins in these tests, tags left out.
# UniProt P08684, whole entry: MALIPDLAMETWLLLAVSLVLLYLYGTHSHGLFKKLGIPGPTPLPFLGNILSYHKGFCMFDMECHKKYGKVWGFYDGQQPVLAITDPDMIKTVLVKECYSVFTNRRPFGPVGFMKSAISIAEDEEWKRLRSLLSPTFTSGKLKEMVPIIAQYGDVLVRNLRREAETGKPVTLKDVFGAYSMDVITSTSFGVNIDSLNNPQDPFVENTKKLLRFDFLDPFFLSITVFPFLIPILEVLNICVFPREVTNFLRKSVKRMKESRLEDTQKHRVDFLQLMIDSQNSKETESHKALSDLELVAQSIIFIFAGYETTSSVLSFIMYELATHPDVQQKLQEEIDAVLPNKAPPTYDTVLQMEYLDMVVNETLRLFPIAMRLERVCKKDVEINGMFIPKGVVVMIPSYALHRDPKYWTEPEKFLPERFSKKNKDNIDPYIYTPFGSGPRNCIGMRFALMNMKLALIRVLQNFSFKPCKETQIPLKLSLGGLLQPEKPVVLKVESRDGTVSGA
# [1] = system: STAT3 downstream gene expression; assay: RT-qPCR / Western blot of STAT3 downstream genes; conditions: Capan-2, HPAC and BxPC-3
# Method: Pancreatic cancer cells were lysed in RIPA buffer supplemented with 1 mM phenylmethylsulfonyl fluoride (PMSF), a proteinase inhibitor cocktail and a phosphatase inhibitor cocktail (Sigma). Lysates were separated by 8–12% sodium dodecyl sulfate-polyacrylamide gel electrophoresis (SDS-PAGE) and transferred to nitrocellulose. The blots were probed with specific antibodies followed by a secondary antibody, and then membranes were examined by the LI-COR Odyssey infrared imaging system (LI-COR Biotechnology, Lincoln NE). The antibodies used and their technical information are listed in Supplementary Table S2.
# Total RNA was isolated using TRIzol reagent (Takara, Japan). RNA was used to generate single-stranded cDNA according to the manufacturer’s protocols of the cDNA Reverse Transcription Kit (Takara, Japan) and then subjected to polymerase chain reaction (PCR) using SYBR Green Master Mix (Thermo Fisher Scientific). The expression of VEGF, Cyclin D1, c-Myc and Bcl-2 in Capan-2, HPAC, and BxPC-3 cells was validated by real-time quantitative PCR. The sequences of Real-time PCR primers are listed in Supplementary Table S3.
# CYP3A4-M = CYP3A4-M (Homo sapiens, UniProt P08684); assay: CYP3A4-M inhibition; conditions: safety profiling
smiles,measurement,setting,value
Cn1c(C(=O)N2CCN(Cc3ccc(OCC(F)(F)F)cc3)CC2)cc2ccc(Oc3cnc(-c4nc(-c5ccc(C(F)(F)F)cc5)no4)cn3)cc21,STAT3 downstream gene expression,[1],significantly suppressed STAT3 downstream gene expression
same,IC50,CYP3A4-M,> 25 µM
same,Plasma t1/2,"Plasma stability, human",> 2 h

# — paper PMC10979493
